{
  "source": "paper PMC8954350",
  "about": "“Non-Canonical Cannabinoid Receptors with Distinct Binding and Signaling Properties in Prostate and Other Cancer Cell Types Mediate Cell Death” (International Journal of Molecular Sciences, 2022)",
  "test_system": "DU-145 cells",
  "assay": "Mitochondrial membrane potential (JC-1 staining), DU-145 cells",
  "assay_type": "cell-based, human",
  "details": "10 μM, 24 h",
  "data": [
    {"smiles": "Cc1c(C(=O)NN2CCCCC2)nn(-c2ccc(Cl)cc2Cl)c1-c1ccc(I)cc1", "note": "[AM-251]", "values": [
      {"measurement": "mitochondrial membrane potential (MMP) depolarization", "result": "reduced MMP"}
    ]}
  ]
}
